Source: ChEMBL document CHEMBL3880382, “TRH-like peptide derivatives as inhibitors of the TRH-degrading ectoenzyme” (2010)

Chains of the proteins cited; added tags and fusions are not shown. A line that says so, or that is headed by a name, gives the form on record, which may keep a tag or linker.
UniProt A0A287AP33, as listed by the source: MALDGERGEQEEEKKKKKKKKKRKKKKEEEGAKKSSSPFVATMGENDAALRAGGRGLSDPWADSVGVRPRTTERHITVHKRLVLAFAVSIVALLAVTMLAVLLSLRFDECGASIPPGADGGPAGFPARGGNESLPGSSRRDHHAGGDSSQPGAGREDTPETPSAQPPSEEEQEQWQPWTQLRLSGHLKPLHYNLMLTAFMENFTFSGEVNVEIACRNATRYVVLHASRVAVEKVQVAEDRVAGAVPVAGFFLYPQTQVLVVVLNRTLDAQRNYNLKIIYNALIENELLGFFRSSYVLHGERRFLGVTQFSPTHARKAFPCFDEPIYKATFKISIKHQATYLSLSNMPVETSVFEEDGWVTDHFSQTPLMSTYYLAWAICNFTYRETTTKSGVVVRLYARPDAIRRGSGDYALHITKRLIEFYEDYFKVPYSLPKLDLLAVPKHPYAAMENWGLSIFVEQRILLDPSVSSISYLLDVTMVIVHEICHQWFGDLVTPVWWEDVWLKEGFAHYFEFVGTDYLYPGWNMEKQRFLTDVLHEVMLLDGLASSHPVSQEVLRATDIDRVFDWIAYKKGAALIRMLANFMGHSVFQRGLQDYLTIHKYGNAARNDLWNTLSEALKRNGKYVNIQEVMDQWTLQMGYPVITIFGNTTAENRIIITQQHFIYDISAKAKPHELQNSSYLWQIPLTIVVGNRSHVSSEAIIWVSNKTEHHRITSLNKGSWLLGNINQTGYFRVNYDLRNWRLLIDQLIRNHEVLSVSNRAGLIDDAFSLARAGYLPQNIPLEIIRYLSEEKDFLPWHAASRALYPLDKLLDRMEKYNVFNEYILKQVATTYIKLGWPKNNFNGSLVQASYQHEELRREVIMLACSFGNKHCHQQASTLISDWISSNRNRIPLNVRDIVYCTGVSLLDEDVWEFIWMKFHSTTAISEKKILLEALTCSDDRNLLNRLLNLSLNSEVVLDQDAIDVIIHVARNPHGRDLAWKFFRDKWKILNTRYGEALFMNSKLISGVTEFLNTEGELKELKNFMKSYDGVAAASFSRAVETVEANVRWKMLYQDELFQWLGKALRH

Biological target: Thyrotropin releasing hormone degrading enzyme (Sus scrofa) (UniProt A0A287AP33)
Assay: Substrate activity at pig brain TRH-DE assessed as retention time at 1 mM incubated for 18 hrs by HPLC analysis

## NC(=O)C[C@H](NC(=O)[C@@H]1CCC(=O)N1)C(=O)N1CCC[C@H]1C(=O)Nc1ccccc1O
  Retention time: 13.2 min
